# Test results published in US10408813B2, “Biosensor for detecting intracellular cyclic adenosine monophosphate (cAMP) and uses thereof” (Academia Sinica, priority 2015, dated 2019).
# By UniProt entry, the sequences of proteins in these tests, tags left out. Residues count along the entry.
# UniProt P32301, 22-463: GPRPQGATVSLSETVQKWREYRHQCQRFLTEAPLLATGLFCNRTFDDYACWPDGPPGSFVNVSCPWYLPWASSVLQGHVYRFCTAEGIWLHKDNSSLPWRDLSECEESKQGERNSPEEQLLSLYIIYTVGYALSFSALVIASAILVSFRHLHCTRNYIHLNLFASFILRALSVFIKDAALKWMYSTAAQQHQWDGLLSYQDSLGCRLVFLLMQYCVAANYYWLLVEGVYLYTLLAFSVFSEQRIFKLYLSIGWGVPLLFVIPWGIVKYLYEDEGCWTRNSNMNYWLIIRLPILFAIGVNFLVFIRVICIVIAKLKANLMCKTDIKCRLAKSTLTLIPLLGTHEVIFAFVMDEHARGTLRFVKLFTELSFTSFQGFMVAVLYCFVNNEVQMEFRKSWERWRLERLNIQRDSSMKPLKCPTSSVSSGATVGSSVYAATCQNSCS
# Target: GLP-1R (UniProt P01275+P32301)
# Experiment: BRET cAMP response assay in RINm5F cells, GLP-1R-mediated cAMP production
# Assay type: cell-based, rat
substance,measurement,value
"His-tagged GLP-1 (7-36): SEQ ID NO: 6, six consecutive histidine residues tagged to the C-terminal of GLP-1 (7-36) peptide (HAEGTFTSDVSSYLEGQAAKEFIAWLVKGRHHHHHH; His-tagged GLP-1 (7-36)) [reference compound]",response to OEA and stimulation of cAMP response compared with GLP-1 (7-36) amide,comparable response
